Test results reported in ChEMBL document CHEMBL5131383, “Structure-based design, synthesis, and evaluation of inhibitors with high selectivity for PARP-1 over PARP-2” (Eur J Med Chem, 2022).

Species on record: Homo sapiens
Experiment: Selectivity index, ratio of IC50 for human PARP2 to IC50 for human PARP1
`NC1CCN(Cc2ccc(-c3[nH]c4cc(F)cc5c4c3CCNC5=O)cc2)CC1` was tested, and the Ratio IC50 was 10.3.
`C[C@@H]1CN(Cc2ccc(-c3[nH]c4cc(F)cc5c4c3CCNC5=O)cc2)CCN1` gave a Ratio IC50 of 4.4.
Compound `NC1CCN(Cc2cccc(-c3[nH]c4cc(F)cc5c4c3CCNC5=O)c2)CC1` has a Ratio IC50 of 64.5.
In the case of `CCN(CC)Cc1ccc(-c2[nH]c3cc(F)cc4c3c2CCNC4=O)cc1`, the Ratio IC50 was 18.4.
